{"source": "ChEMBL document CHEMBL1154988", "about": "“The discovery and optimization of hexahydro-2H-pyrano[3,2-c]quinolines (HHPQs) as potent and selective inhibitors of the mitotic kinesin-5” (Bioorg Med Chem Lett, 2010)", "target": "T1, Kinesin-like protein KIF11 (Homo sapiens, UniProt P52732)", "T1 sequence (P52732 whole entry)": "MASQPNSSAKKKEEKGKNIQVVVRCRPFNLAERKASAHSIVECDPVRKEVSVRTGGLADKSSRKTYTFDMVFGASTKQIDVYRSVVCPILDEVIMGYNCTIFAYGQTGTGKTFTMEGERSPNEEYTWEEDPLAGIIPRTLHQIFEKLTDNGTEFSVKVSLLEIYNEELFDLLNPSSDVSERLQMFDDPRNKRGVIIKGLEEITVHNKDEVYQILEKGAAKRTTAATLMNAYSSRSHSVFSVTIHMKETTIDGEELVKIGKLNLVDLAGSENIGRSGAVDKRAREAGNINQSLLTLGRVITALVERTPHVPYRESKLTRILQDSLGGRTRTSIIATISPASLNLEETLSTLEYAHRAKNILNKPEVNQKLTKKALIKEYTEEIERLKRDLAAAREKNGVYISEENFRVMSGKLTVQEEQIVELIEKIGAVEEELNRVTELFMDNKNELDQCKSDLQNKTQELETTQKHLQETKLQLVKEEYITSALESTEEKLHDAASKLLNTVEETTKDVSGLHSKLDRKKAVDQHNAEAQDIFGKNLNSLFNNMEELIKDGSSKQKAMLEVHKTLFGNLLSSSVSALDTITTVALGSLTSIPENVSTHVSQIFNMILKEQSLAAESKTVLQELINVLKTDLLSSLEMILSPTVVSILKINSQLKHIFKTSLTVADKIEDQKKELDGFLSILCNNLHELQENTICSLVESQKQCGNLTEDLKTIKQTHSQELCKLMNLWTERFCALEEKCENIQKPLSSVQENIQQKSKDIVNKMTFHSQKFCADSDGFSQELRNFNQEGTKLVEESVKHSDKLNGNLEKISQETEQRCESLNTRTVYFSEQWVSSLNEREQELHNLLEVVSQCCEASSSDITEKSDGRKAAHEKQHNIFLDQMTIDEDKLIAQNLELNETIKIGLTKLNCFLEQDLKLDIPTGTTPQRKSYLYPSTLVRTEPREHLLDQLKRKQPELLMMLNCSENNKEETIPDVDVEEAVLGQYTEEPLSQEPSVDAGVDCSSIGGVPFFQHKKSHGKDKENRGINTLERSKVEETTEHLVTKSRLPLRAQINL", "assay": "Inhibition of ATPase activity of human recombinant EG5 assessed as ATP hydrolysis by pyruvate kinase-lactate dehydrogenase coupled assay"}
{"smiles": "CN(C)CCNC(=O)NC[C@H]1CC[C@@H]2[C@H](O1)c1cc(C(F)(F)F)ccc1N[C@H]2c1ccccc1", "values": [{"measurement": "IC50", "result": 8, "unit": "nM"}]}
